Read-outs that look alike come from different tables or passages of the source.
Key:
[1] = system: viral glycoproteins (H and F); CD150; assay: beta-galactosidase complementation-based fusion assay, CD150 target cells; conditions: read-out: CD150 IC90
[2] = molecular target: viral glycoproteins (H and F); Nectin-4 (Measles virus, UniProt Q786F3); assay: beta-galactosidase complementation-based fusion assay, Nectin-4 target cells

The chains behind the UniProt entries cited, without tags or fusion partners. Residues count along the entry.
UniProt Q786F3, 113-550: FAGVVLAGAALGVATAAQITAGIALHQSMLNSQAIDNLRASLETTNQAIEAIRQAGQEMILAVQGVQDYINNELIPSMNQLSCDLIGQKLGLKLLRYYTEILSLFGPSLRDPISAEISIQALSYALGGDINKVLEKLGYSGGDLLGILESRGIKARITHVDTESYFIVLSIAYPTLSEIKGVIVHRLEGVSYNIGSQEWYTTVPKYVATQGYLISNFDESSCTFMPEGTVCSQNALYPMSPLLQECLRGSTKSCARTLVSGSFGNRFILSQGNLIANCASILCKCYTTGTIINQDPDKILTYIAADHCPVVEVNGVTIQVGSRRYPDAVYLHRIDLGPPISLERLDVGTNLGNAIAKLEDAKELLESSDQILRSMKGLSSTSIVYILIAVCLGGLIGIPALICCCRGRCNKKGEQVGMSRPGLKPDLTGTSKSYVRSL
UniProt Q786F3, 24-112: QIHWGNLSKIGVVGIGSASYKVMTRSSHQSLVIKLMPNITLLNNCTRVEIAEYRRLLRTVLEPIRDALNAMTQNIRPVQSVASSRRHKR

SMILES	IC90 [1] [nM]	IC90 [2] [nM]	IC90 ([2]; read-out: Nectin4 IC90) [nM]
CC[C@H](C)[C@H](NC(=O)[C@H](C)NC(=O)[C@H](CC(N)=O)NC(=O)CNC(=O)[C@H](CC(C)C)NC(=O)[C@H](CC(N)=O)NC(=O)[C@@H](NC(=O)CNC(=O)[C@@H](NC(=O)[C@H](CC(=O)O)NC(=O)[C@H](CC(C)C)NC(=O)[C@H](CCCNC(=N)N)NC(=O)[C@H](CCC(=O)O)NC(=O)[C@H](CC(C)C)NC(=O)[C@H](CO)NC(=O)[C@@H](NC(=O)[C@@H]1CCCN1C(=O)[C@@H]1CCCN1C(=O)CNC(=O)[C@H](CO)NC(=O)CNC(=O)[C@H](CO)NC(=O)CNC(=O)CNC(=O)[C@H](Cc1ccccc1)NC(=O)[C@@H](Cc1ccccc1)NC(=O)OCc1ccccc1)[C@@H](C)CC)C(C)C)[C@@H](C)O)C(=O)N[C@@H](C)C(=O)N[C@@H](CCCCN)C(=O)N[C@@H](CC(C)C)C(=O)N[C@@H](CCC(=O)O)C(=O)N[C@@H](CC(=O)O)C(=O)N[C@@H](C)C(=O)N[C@@H](CCCCN)C(=O)N[C@@H](CCC(=O)O)C(=O)N[C@@H](CC(C)C)C(=O)N[C@@H](CC(C)C)C(=O)N[C@@H](CCC(=O)O)C(=O)N[C@@H](CO)C(=O)N[C@@H](CO)C(=O)N[C@@H](CC(=O)O)C(=O)N[C@@H](CCC(N)=O)C(=O)N[C@H](C(=O)N[C@@H](CC(C)C)C(=O)N[C@@H](CCCNC(=N)N)C(=O)NCC(=O)N[C@@H](CO)C(=O)NCC(=O)N[C@@H](CO)C(=O)NCC(=O)N[C@@H](CSCC(=O)NCCOCCOCCOCCOCCC(=O)O[C@H]1CC[C@@]2(C)C(=CC[C@H]3[C@@H]4CC[C@H]([C@H](C)CCCC(C)C)[C@@]4(C)CC[C@@H]32)C1)C(=O)O)[C@@H](C)CC [FIP-HRC450-485-peg4-chol]	> 700	614 ± 245	614 ± 245
CC[C@H](C)[C@H](NC(=O)[C@H](C)NC(=O)[C@H](CC(N)=O)NC(=O)CNC(=O)[C@H](CC(C)C)NC(=O)[C@H](CC(N)=O)NC(=O)[C@@H](NC(=O)CNC(=O)[C@@H](NC(=O)[C@H](CC(=O)O)NC(=O)[C@H](CC(C)C)NC(=O)[C@H](CCCNC(=N)N)NC(=O)[C@H](CCC(=O)O)NC(=O)[C@H](CC(C)C)NC(=O)[C@H](CO)NC(=O)[C@@H](NC(=O)[C@@H]1CCCN1C(=O)[C@@H]1CCCN1C(=O)CNC(=O)[C@H](CO)NC(=O)CNC(=O)[C@H](CO)NC(=O)CNC(=O)CNC(=O)[C@H](Cc1ccccc1)NC(=O)[C@@H](Cc1ccccc1)NC(=O)OCc1ccccc1)[C@@H](C)CC)C(C)C)[C@@H](C)O)C(=O)N[C@@H](C)C(=O)N[C@@H](CCCCN)C(=O)N[C@@H](CC(C)C)C(=O)N[C@@H](CCC(=O)O)C(=O)N[C@@H](CC(=O)O)C(=O)N[C@@H](C)C(=O)N[C@@H](CCCCN)C(=O)N[C@@H](CCC(=O)O)C(=O)N[C@@H](CC(C)C)C(=O)N[C@@H](CC(C)C)C(=O)N[C@@H](CCC(=O)O)C(=O)N[C@@H](CO)C(=O)N[C@@H](CO)C(=O)N[C@@H](CC(=O)O)C(=O)N[C@@H](CCC(N)=O)C(=O)N[C@H](C(=O)N[C@@H](CC(C)C)C(=O)N[C@@H](CCCNC(=N)N)C(=O)N[C@@H](CSCC(=O)NCCOCCOCCOCCOCCOCCOCCOCCOCCOCCOCCOCCOCCOCCOCCOCCOCCOCCOCCOCCOCCOCCOCCOCCOCCC(=O)O[C@H]1CC[C@@]2(C)C(=CC[C@H]3[C@@H]4CC[C@H]([C@H](C)CCCC(C)C)[C@@]4(C)CC[C@@H]32)C1)C(=O)O)[C@@H](C)CC [peg24 chol [FIP-HRC450-485] (no GSGSG)]	> 900	–	> 700
CC[C@H](C)[C@H](NC(=O)[C@H](C)NC(=O)[C@H](CC(N)=O)NC(=O)CNC(=O)[C@H](CC(C)C)NC(=O)[C@H](CC(N)=O)NC(=O)[C@@H](NC(=O)CNC(=O)[C@@H](NC(=O)[C@H](CC(=O)O)NC(=O)[C@H](CC(C)C)NC(=O)[C@H](CCCNC(=N)N)NC(=O)[C@H](CCC(=O)O)NC(=O)[C@H](CC(C)C)NC(=O)[C@H](CO)NC(=O)[C@@H](NC(=O)[C@@H]1CCCN1C(=O)[C@@H]1CCCN1C(=O)CNC(=O)[C@H](CO)NC(=O)CNC(=O)[C@H](CO)NC(=O)CNC(=O)CNC(=O)[C@H](Cc1ccccc1)NC(=O)[C@@H](Cc1ccccc1)NC(=O)OCc1ccccc1)[C@@H](C)CC)C(C)C)[C@@H](C)O)C(=O)N[C@@H](C)C(=O)N[C@@H](CCCCN)C(=O)N[C@@H](CC(C)C)C(=O)N[C@@H](CCC(=O)O)C(=O)N[C@@H](CC(=O)O)C(=O)N[C@@H](C)C(=O)N[C@@H](CCCCN)C(=O)N[C@@H](CCC(=O)O)C(=O)N[C@@H](CC(C)C)C(=O)N[C@@H](CC(C)C)C(=O)N[C@@H](CCC(=O)O)C(=O)N[C@@H](CO)C(=O)N[C@@H](CO)C(=O)N[C@@H](CC(=O)O)C(=O)N[C@@H](CCC(N)=O)C(=O)N[C@H](C(=O)N[C@@H](CC(C)C)C(=O)N[C@@H](CCCNC(=N)N)C(=O)N[C@@H](CSC1CC(=O)N(CC)C1=O)C(=O)O)[C@@H](C)CC (stereo partly shown)	> 1000	–	> 10000
